Laboratory results published in patent US5578725A, “Delta opioid receptor antagonists” (priority 1995, dated 1996).

Protein sequences, listed by entry. Tags and fused reporters are not part of them. Lines headed by an entry give the natural chain unless they say otherwise; changes in a name come on top.
UniProt P33534: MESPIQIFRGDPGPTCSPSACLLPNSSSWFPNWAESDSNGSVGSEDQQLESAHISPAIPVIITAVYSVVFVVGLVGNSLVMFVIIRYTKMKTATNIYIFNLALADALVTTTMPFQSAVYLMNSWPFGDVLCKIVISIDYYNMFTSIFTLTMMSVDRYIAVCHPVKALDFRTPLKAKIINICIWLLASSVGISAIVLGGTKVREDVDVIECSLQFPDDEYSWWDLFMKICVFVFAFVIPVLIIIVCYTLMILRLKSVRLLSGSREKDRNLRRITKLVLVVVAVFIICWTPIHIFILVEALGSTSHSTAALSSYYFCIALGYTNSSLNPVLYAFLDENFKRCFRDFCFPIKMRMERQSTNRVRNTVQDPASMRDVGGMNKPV

Biological target: κ (Mus musculus, UniProt P33534)
Test: Tail-flick assay, antagonism of U50,488H (κ) antinociception
Format: in vivo, male Swiss-Webster mice
Conditions: agonist, mice

CN(C(=O)Cc1ccc(Cl)c(Cl)c1)[C@@H]1CCCC[C@H]1N1CCCC1 (racemic)
Peak antinociceptive activity time: 20 min
